Each compound was assayed against Autotaxin (Homo sapiens, UniProt Q13822) (assay: Inhibition of ATX (unknown origin) expressed in human HEK293 cells using TG-mTMP as substrate after 2 hrs by fluorescence based plate reader assay).

**Q.** How did the IC50 turn out when `CCN1CCN(C2=NC(=O)/C(=C/c3ccc(Cl)cc3)S2)CC1` was run?
**A.** 420 nM

**Q.** Which IC50 does the source give for `Cc1nc2ccccn2c(=O)c1Cc1ccc(Cl)cc1` here?
**A.** 300 nM

**Q.** `CCCCCCCN/C=C1\C(=O)N(c2ccc(F)cc2)C(=O)N=C1O` was tested. Which IC50 did it give?
**A.** 250 nM
